GIV-Gai inh: blocks GIV peptide binding to rat Galpha-i3. P08753. Galpha-i3/FITC-GIV peptide fluorescence polarization, 90 min; stronger effect = lower value; scaled: aluminum fluoride 0%, vehicle 100%. percent of control (FP), % (test concentration not listed). 0.42% of 210,000 active. AID 1224905;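 active = replicate mean at 85% of control or lower, very high polarization wells dropped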;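 note: wells of about 15 µL received 100 nL stock; the first replicate is given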
HCMV UL50-53 inh: inhibitors of HCMV UL50-UL53 nuclear egress complex interaction; HTRF UL50-UL53 interaction, normalized percent inhibition; inhibition, % (test concentration not listed); 0.15% of 190,000 active; in the data active = inhibition above about 27%, passing the limit was not always enough
GIV-Gai FP conf: confirmation of inhibitors of GIV binding to rat Galpha-i3 | shares compounds with GIV-Gai inh | FITC-GIV peptide binding to Galphai3, fluorescence polarization; stronger effect = lower value | fluorescence polarization, mP at 100 µM | 38% of 580 active;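 active = inhibition score of 15 or more, meaning 100 minus mean polarization as percent of control over three replicates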
GIV Gai AS conf: GIV-Galpha-i3 inhibition, AlphaScreen confirmation | shares compounds with GIV-Gai inh | AlphaScreen Galphai3-GIV binding, purified proteins, 90 min; stronger effect = lower value | AlphaScreen counts at 100 µM | 39% of 580 active | AID 1259351;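 active = inhibition score at or above a set limit, where the score is 100 minus the three-replicate mean percent of control signal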
An asterisk follows results filed as active; · = no result given. In the library only some 0.43% were active in any assay of this set; here they are far more common.

item	SMILES	GIV-Gai inh	HCMV UL50-53 inh
1	O=C(c1cccc(NC2=NC3CS(=O)(=O)CC3S2)c1)N1CCN(C(=O)c2ccco2)CC1 (stereo unspecified)	103.4	-12.7
2	CCN(CC)S(=O)(=O)c1cc(-c2nc(C(C)C)cs2)sc1C	105.6	·
3	O=c1c(=N\O)/c(=N/O)c(=O)c2ccccc12	58.7*	97.2*
4	O=c1c(=Nc2ccccc2O)c(=O)c2ccccc12	·	37.0
5	N#C/C(=C\c1ccccc1O)S(=O)(=O)c1ccc(Cl)cc1	·	-28.6
6	O=C(Nc1cc(-c2nc3ccccc3o2)ccc1Cl)c1ccc(Br)o1	69.0*	-55.4
7	O=C(Nc1ccc(-c2nc3ccccc3o2)cc1)c1ccc(Br)o1	108.2	-22.9
8	Cc1cc(C)c2oc(-c3cccc(NC(=O)c4ccc(Br)o4)c3)nc2c1	89.9	-16.7
9	Cc1cc(C)c2oc(-c3cccc(NC(=O)c4ccco4)c3)nc2c1	113.0	2.6
10	CCCN(CCC)S(=O)(=O)c1ccc(C(=O)Nc2ccc3c4c(cccc24)C(=O)N3CC)cc1	129.9	·
11	C=CCN(CC=C)S(=O)(=O)c1ccc(C(=O)Nc2ccc3c4c(cccc24)C(=O)N3CC)cc1	77.8*	·
12	S=C(c1ccc(N2CCCC2)c(Br)c1)N1CCOCC1	108.9	2.1
13	O=c1sc2ccccc2n1Cc1ccccc1	·	3.5
14	O=c1sc2ccccc2n1Cc1nnc(-c2ccccc2)o1	92.1	19.3
15	O=C(C1CCCCC1)N1CCN(c2cc(C(F)(F)F)nc3ccccc23)CC1	111.7	11.4

item	GIV-Gai FP conf	GIV Gai AS conf
1	·	·
2	·	·
3	63.8*	4729*
4	·	·
5	·	·
6	76.5	31293
7	·	·
8	76.4	24189
9	·	·
10	·	·
11	64.4	46376
12	·	·
13	·	·
14	74.4	33349
15	·	·

Brought forward from above: 4 entries, then new ones.
item	SMILES	GIV-Gai inh	HCMV UL50-53 inh
12	S=C(c1ccc(N2CCCC2)c(Br)c1)N1CCOCC1	108.9	2.1
13	O=c1sc2ccccc2n1Cc1ccccc1	·	3.5
14	O=c1sc2ccccc2n1Cc1nnc(-c2ccccc2)o1	92.1	19.3
15	O=C(C1CCCCC1)N1CCN(c2cc(C(F)(F)F)nc3ccccc23)CC1	111.7	11.4
16	O=C(O)CSCC(=O)N1CCN(c2cc(C(F)(F)F)nc3ccccc23)CC1	91.1	-47.9
17	C=CCn1c(C)ccc1C	·	-23.1
18	COC(=O)c1[nH]c(C(=O)OC)c(O)c1O	59.1*	-11.6
19	COC(=O)c1[nH]c(C)c(C(=O)OC)c1C	·	-5.6
20	COc1ccc(-c2nn3c(-c4cccnc4)nnc3s2)cc1OC	103.4	7.3
21	O=C(OC1CCOC1=O)c1cccnc1Nc1cccc(C(F)(F)F)c1 (stereo unspecified)	·	8.2
22	COc1ccc(C2=NN(C(=O)c3ccc(Br)o3)C(c3ccccc3Cl)C2)cc1OC (stereo unspecified)	119.9	·
23	CC1=C(C(=O)OC(C)C)C(c2ccc(C(C)C)cc2)C(C#N)=C(N)S1 (stereo unspecified)	·	-8.5
24	CC(C)c1ccc(C2C(C#N)=C(N)N3C(=C2C#N)Sc2ccccc23)cc1 (stereo unspecified)	78.9*	·
25	CCCCC(C(=O)O)N1C(=O)/C(=C/c2cccnc2)SC1=S (stereo unspecified)	83.3*	-44.8
26	CCCC(C(=O)O)N1C(=O)/C(=C/c2ccc(C)cc2)SC1=S (stereo unspecified)	·	-16.0
27	O=S(=O)(Nc1ccc(O)c(Sc2ncn[nH]2)c1)c1ccccc1	103.4	·
28	O=C1C(Sc2ncn[nH]2)=C/C(=N/S(=O)(=O)c2ccc(Cl)cc2)c2ccccc21	8.2*	-8.3
29	Cc1ccc(C)n1-c1ccc(SCC(=O)O)cc1	6.4*	55.5*
30	COc1ccc(SCC(=O)O)cc1	·	-15.6

item	GIV-Gai FP conf	GIV Gai AS conf
12	·	·
13	·	·
14	74.4	33349
15	·	·
16	72.5	48255
17	·	·
18	65.4	50522
19	·	·
20	·	·
21	·	·
22	·	·
23	·	·
24	75.4	39185
25	71.8	35991
26	·	·
27	·	·
28	17.5*	4487*
29	16.8*	2022*
30	·	·

The list continues:
item	SMILES	GIV-Gai inh	HCMV UL50-53 inh
31	O=C(Cc1ccccc1)Nc1ccc(N2CCCC2=O)cc1	103.1	-16.5
32	CCOC(=O)c1sc(NC(=O)CSc2nnc(C)c(=O)[nH]2)nc1C	118.8	·
33	COc1cccc(Cn2c(=O)n(Cc3ccccc3)c(=O)c3cccnc32)c1	101.6	·
34	O=C(Nc1ccc(-c2noc(C3CCC3)n2)cc1)Nc1cccc(Br)c1	103.0	10.0
35	Cc1cccc(-c2nc3nc(C)cc(N4CCN(c5ccccc5)CC4)n3n2)c1	102.7	-35.6
36	Cc1ccc(-c2nc3nc(C)cc(N4CCN(c5cccc(C)c5)C(C)C4)n3n2)cc1 (stereo unspecified)	73.5*	9.9
37	Cn1c(C(=O)Nc2ccc(Cl)cc2)cc2c(=O)oc3ccccc3c21	102.4	7.1
38	c1ccc(-c2nnc3sc(-c4ccncc4)nn23)nc1	98.6	-5.6
39	COC(=O)c1ccccc1NC(=O)NCc1nnc(C(=O)Nc2ccc(OC)cc2)s1	112.2	·
40	O=C(NC1CCN(Cc2ccccc2)CC1)C1CCN(c2cnccn2)CC1	66.6*	-14.3
41	O=C(NCCc1ccccc1)C1CCN(c2cnccn2)CC1	101.7	-18.8
42	CCc1cccc(C)c1Nc1c(-c2ccc(O)cc2)nc2cnc(Br)cn12	140.3	·
43	COc1ccc(NC(=O)NCCn2c(C(F)(F)F)nc3cccnc32)c(OC)c1	109.8	-11.9
44	COc1ccc(-c2c(-c3ccc(OC)c(OC)c3)c(C)n(C)c2C)cc1OC	117.8	-44.3
45	COc1ccc(-n2ccc(=O)c(-c3nc(-c4ccc(F)cc4)no3)n2)cc1	101.0	·

item	GIV-Gai FP conf	GIV Gai AS conf
31	·	·
32	·	·
33	·	·
34	·	·
35	·	·
36	84.4	32703
37	·	·
38	·	·
39	·	·
40	62	43938
41	·	·
42	·	·
43	·	·
44	·	·
45	·	·

New compounds follow:
item	SMILES	GIV-Gai inh	HCMV UL50-53 inh
46	COc1ccc(-c2nc3c(=O)n(C)c(=O)nc-3n(C)n2)cc1OC	57.3*	74.0
47	Cn1nc(-c2ccc(F)cc2)nc2c(=O)n(C)c(=O)nc1-2	14.8*	83.1*
48	CCOc1ncccc1C(=O)Nc1ccc(-c2cn3c(n2)SCC3)cc1	102.5	-36.6
49	COc1cccc(C(=O)Nc2ccc(Cc3ccc(NC(=O)c4cccc(OC)c4)cc3)cc2)c1	97.7	·
50	CN1CCN(C(=O)c2sc3ncccc3c2-n2cccc2)CC1	103.1	8.9
51	COCCn1cc2c3c(cccc31)CN(C(=O)NCC1CCCO1)CC2 (stereo unspecified)	81.3*	·
52	Cn1cc2c3c(cccc31)CN(C(=O)NCC1CCCO1)CC2 (stereo unspecified)	92.2	·
53	N#CC(C#N)=C(N)/C(C#N)=C/c1ccco1	112.0	-69.1
54	N#C/C(=C\C=C\c1ccco1)C(N)=S	78.3*	51.4
55	Cc1cc(=O)cc(C)n1-c1ccc(O)cc1	·	2.3
56	Cc1cc(=O)n(-c2ccc(O)cc2)[nH]1	77.0*	68.9*
57	COc1ccccc1NC(=O)c1sc2ncn(CC(=O)Nc3cccc(C(F)(F)F)c3)c(=O)c2c1C	110.1	·
58	COc1ccc(OC)c(NC(=O)CCc2c(C)nc3c(-c4ccccc4)c(C)nn3c2C)c1	101.5	-4.9
59	COc1ccc(NC(=O)CCc2c(C)nc3c(-c4ccc(F)cc4)c(C)nn3c2C)c(OC)c1	92.3	-7.1
60	O=C(CSc1nc(NC2CCCCC2)c2ccccc2n1)NCc1ccco1	113.5	·

item	GIV-Gai FP conf	GIV Gai AS conf
46	41.5*	27053*
47	27.8*	22497
48	·	·
49	·	·
50	·	·
51	60.2*	20045
52	·	·
53	·	·
54	50.4*	2145*
55	·	·
56	49.4*	34971
57	·	·
58	·	·
59	79.9	32949
60	·	·

Further structures follow.
item	SMILES	GIV-Gai inh	HCMV UL50-53 inh
61	Clc1ccc2c(c1)NNc1nncn1-2	101.1	-293.6
62	O=C(O)CSc1nnc2n1-c1ccc(Cl)cc1NN2	47.5*	-265.2
63	COc1cc(C2Nc3ccccc3-c3nnc(SC)nc3O2)cc(Br)c1O (stereo unspecified)	105.2	-50.9
64	CSc1nnc2c(n1)OC(c1cccs1)Nc1ccccc1-2 (stereo unspecified)	53.0*	-37.2
65	COc1ccc(C2Nc3ccccc3-c3nnc(SC)nc3O2)cc1C (stereo unspecified)	36.0*	-36.8
66	CCCSc1nnc2c(n1)OC(c1cccs1)Nc1ccccc1-2 (stereo unspecified)	102.7	-30.9

item	GIV-Gai FP conf	GIV Gai AS conf
61	·	·
62	38.7*	6321*
63	·	·
64	61.4	27085*
65	81.5	27274
66	·	·

From PubChem
